The source of these data is PMC2749821 (BMC Biology, 2009).

Holding throughout (settings): both partners purified
The target in test [1] is T1, activin receptor type II (ActR-II) ectodomain, human (human, UniProt P27037 18-135, N-biotinylated (sulfo-NHS-LC-biotin) where immobilised).
T1 construct: also called hActR-II
Nature of the test: SPR; Biacore 2000; receptor ectodomains as analyte over biotinylated ligands on streptavidin-coated CM5 chips; HBS500, 25°C, 10 μl/min; apparent affinities, 1:1 interaction. (In SPR one partner is held on a chip, and binding of the other changes the refractive index at the surface.)

Test [2] concerns the target T1, activin receptor type II (ActR-II) …. In words: SPR; ligands as analyte over immobilized receptor ectodomains, 0.36% CHAPS added to HBS500 buffer.
Test [3] shares this target. In words: SPR; Biacore 2000; ligands as analyte over biotinylated receptor ectodomains (about 200 RU) on streptavidin-coated CM5 chips; HBS500 (10 mM HEPES pH 7.4, 500 mM NaCl, 3.4 mM EDTA, 0.005% P20), 25°C, 10 μl/min; apparent affinities, 1:2 interaction with avidity.
Test [4] deals with T2, BMP receptor II (BMPR-II) ectodomain, human (human, UniProt Q13873 32-150, N-biotinylated (sulfo-NHS-LC-biotin) where immobilised).
T2 construct: also called hBMPR-II
T2 sequence (looked up): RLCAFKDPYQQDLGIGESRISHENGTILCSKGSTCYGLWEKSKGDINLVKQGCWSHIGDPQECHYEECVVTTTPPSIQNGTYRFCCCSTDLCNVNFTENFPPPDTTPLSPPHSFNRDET
The test is described as above.

B1: growth and differentiation factor 5 (GDF5), mature part (ligand)
chain: MKRQGKRPSKNLKARCSRKALHVNFKDMGWDDWIIAPLEYEAFHCEGLCEFPLRSHLEPTNHAVIQTLMNSMDPESTPPTCCVPTRLSPISILFIDSANNVVYKQYEDMVVESCGCR
modifications: biotin (sulfo-NHS-LC-biotin) where immobilised
notes: N-terminal Met-Lys added to the mature part; dimeric ligand; source: E. coli, isolated from inclusion bodies, renatured and purified
As usually defined, the koff is the first-order rate constant of dissociation. For orientation: kon means the second-order rate constant of association. For the molecule B1, in test [1], the Kd is 22 µM and the koff is over 0.1 s⁻¹. The “fold decrease of binding with CHAPS against without CHAPS” value in test [2] is 30 fold. Also, in test [3], the “KD (kin)” value worked out at 0.02 µM, the Kd stood at 0.032 µM, the koff turned out to be 0.028 s⁻¹ and the kon was 1.4e+06 M⁻¹ s⁻¹. Moreover, the koff in test [4] was determined as 0.038 s⁻¹.
